Amino acid sequences for entries named in this document (tags omitted).
UniProt P22001, whole entry: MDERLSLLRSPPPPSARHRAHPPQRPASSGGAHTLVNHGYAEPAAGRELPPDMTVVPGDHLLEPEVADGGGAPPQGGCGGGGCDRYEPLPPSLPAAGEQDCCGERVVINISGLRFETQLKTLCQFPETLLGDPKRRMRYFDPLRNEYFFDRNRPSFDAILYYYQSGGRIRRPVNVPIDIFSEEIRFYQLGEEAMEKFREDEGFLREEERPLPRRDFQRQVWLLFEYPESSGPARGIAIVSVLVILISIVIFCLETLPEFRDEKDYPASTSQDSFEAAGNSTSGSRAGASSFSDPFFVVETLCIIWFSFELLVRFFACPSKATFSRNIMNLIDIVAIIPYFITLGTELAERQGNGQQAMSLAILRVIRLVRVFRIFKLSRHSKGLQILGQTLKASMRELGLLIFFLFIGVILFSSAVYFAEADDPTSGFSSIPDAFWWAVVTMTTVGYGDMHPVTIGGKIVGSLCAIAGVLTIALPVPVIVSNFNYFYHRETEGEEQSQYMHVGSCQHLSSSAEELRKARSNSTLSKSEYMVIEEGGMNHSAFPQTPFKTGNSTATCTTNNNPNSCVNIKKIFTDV

In ChEMBL document CHEMBL3608278 (J Med Chem, 2015):

Assays:
[1] = target: T1, Potassium voltage-gated channel subfamily A member 3 (Homo sapiens, UniProt P22001); set-up: species or system Blood
[2] = target: T1, Potassium voltage-gated channel subfamily A member 3; experiment: cell-based; set-up: species or system Blood
[3] = target: T1, Potassium voltage-gated channel subfamily A member 3; type: cell-based, CHO-K1

IC50 [3] [nM] | SMILES | IC50 [1] [nM] | IC50 [2] [nM]
0.133 | CC[C@H](C)[C@@H]1NC(=O)[C@@H](NC(=O)[C@H](CO)NC(=O)[C@@H](N)CCCNC(=N)N)CSSC[C@@H](C(=O)O)NC(=O)[C@H]([C@@H](C)O)NC(=O)CNC(=O)[C@@H]2CSSC[C@@H]3NC(=O)[C@H](CCC(N)=O)NC(=O)[C@H](Cc4ccccc4)NC(=O)[C@H](C)NC(=O)[C@H]([C@@H](C)O)NC(=O)[C@H](CSSC[C@H](NC(=O)[C@H](Cc4ccccc4)NC(=O)[C@H](CO)NC(=O)[C@H](CC(C)C)NC(=O)[C@H](CCCNC(=N)N)NC(=O)[C@H](Cc4ccc(O)cc4)NC(=O)[C@H](CCCCN)NC(=O)[C@H](CCSC)NC(=O)[C@H](CO)NC(=O)[C@H](Cc4cnc[nH]4)NC(=O)[C@H](CCCCN)NC3=O)C(=O)N[C@@H](CCCNC(=N)N)C(=O)N[C@@H](CCCCN)C(=O)N[C@@H]([C@@H](C)O)C(=O)N2)NC(=O)[C@H](CCCCN)NC(=O)[C@H](CO)NC(=O)[C@H](CCCCN)NC(=O)[C@@H]2CCCN2C(=O)[C@H]([C@@H](C)CC)NC(=O)[C@H]([C@@H](C)O)NC(=O)[C@H](CC(=O)O)NC1=O | 0.252 | 0.095
 | CC[C@H](C)[C@@H]1NC(=O)[C@@H](NC(=O)[C@H](CO)NC(=O)[C@@H](N)CCCNC(=N)N)CSSC[C@@H](C(=O)O)NC(=O)[C@H]([C@@H](C)O)NC(=O)CNC(=O)[C@@H]2CSSC[C@@H]3NC(=O)[C@H](CCC(N)=O)NC(=O)[C@H](Cc4ccccc4)NC(=O)[C@H](C)NC(=O)[C@H]([C@@H](C)O)NC(=O)[C@H](CSSC[C@H](NC(=O)[C@H](Cc4ccccc4)NC(=O)[C@H](CO)NC(=O)[C@H](CC(C)C)NC(=O)[C@H](CCCNC(=N)N)NC(=O)[C@H](Cc4ccc(O)cc4)NC(=O)[C@H](CCCCN)NC(=O)[C@H](CCSC)NC(=O)[C@H](CO)NC(=O)[C@H](Cc4cnc[nH]4)NC(=O)[C@H](CCCCN)NC3=O)C(=O)N[C@@H](CCCNC(=N)N)C(=O)N[C@@H](CCCCN)C(=O)N[C@@H]([C@@H](C)O)C(=O)N2)NC(=O)[C@H](CCCNC(=N)N)NC(=O)[C@H](CO)NC(=O)[C@H](CCCCN)NC(=O)[C@H](CCCCN)NC(=O)[C@H]([C@@H](C)CC)NC(=O)[C@H]([C@@H](C)O)NC(=O)[C@H](CC(=O)O)NC1=O | 0.975 | 0.154
 | CC[C@H](C)[C@@H]1NC(=O)[C@@H](NC(=O)[C@H](CO)NC(=O)[C@@H](N)CCCNC(=N)N)CSSC[C@@H](C(N)=O)NC(=O)[C@H]([C@@H](C)O)NC(=O)CNC(=O)[C@@H]2CSSC[C@@H]3NC(=O)[C@H](CCCCN)NC(=O)[C@H](Cc4ccccc4)NC(=O)[C@H](C)NC(=O)[C@H]([C@@H](C)O)NC(=O)[C@H](CSSC[C@H](NC(=O)[C@H](Cc4ccccc4)NC(=O)[C@H](CO)NC(=O)[C@H](CC(C)C)NC(=O)[C@H](CCCNC(=N)N)NC(=O)[C@H](Cc4ccc(O)cc4)NC(=O)[C@H](CCCCN)NC(=O)[C@H](CCSC)NC(=O)[C@H](CO)NC(=O)[C@H](Cc4cnc[nH]4)NC(=O)[C@H](CCCCN)NC3=O)C(=O)N[C@@H](CCCNC(=N)N)C(=O)N[C@@H](CCCCN)C(=O)N[C@@H]([C@@H](C)O)C(=O)N2)NC(=O)[C@H](CCCNC(=N)N)NC(=O)[C@H](CO)NC(=O)[C@H](CCCCN)NC(=O)[C@@H]2CCCN2C(=O)[C@H]([C@@H](C)CC)NC(=O)[C@H]([C@@H](C)O)NC(=O)[C@H](CC(=O)O)NC1=O | 0.278 | 0.223
 | CC[C@H](C)[C@@H]1NC(=O)[C@@H](NC(=O)[C@H](CO)NC(=O)[C@@H](N)CCCNC(=N)N)CSSC[C@@H](C(=O)O)NC(=O)[C@H]([C@@H](C)O)NC(=O)[C@H](CCCCN)NC(=O)[C@@H]2CSSC[C@@H]3NC(=O)[C@H](CCC(N)=O)NC(=O)[C@H](Cc4ccccc4)NC(=O)[C@H](C)NC(=O)[C@H]([C@@H](C)O)NC(=O)[C@H](CSSC[C@H](NC(=O)[C@H](Cc4ccccc4)NC(=O)[C@H](CO)NC(=O)[C@H](CC(C)C)NC(=O)[C@H](CCCNC(=N)N)NC(=O)[C@H](Cc4ccc(O)cc4)NC(=O)[C@H](CCCCN)NC(=O)[C@H](CCSC)NC(=O)[C@H](CO)NC(=O)[C@H](Cc4cnc[nH]4)NC(=O)[C@H](CCCCN)NC3=O)C(=O)N[C@@H](CCCNC(=N)N)C(=O)N[C@@H](CCCCN)C(=O)N[C@@H]([C@@H](C)O)C(=O)N2)NC(=O)[C@H](CCCNC(=N)N)NC(=O)[C@H](CO)NC(=O)[C@H](CCCCN)NC(=O)[C@@H]2CCCN2C(=O)[C@H]([C@@H](C)CC)NC(=O)[C@H]([C@@H](C)O)NC(=O)[C@H](CC(=O)O)NC1=O | 0.318 | 0.218
 | CC[C@H](C)[C@@H]1NC(=O)[C@@H](NC(=O)[C@H](CO)NC(=O)[C@@H](N)CCCNC(=N)N)CSSC[C@@H](C(=O)O)NC(=O)[C@H]([C@@H](C)O)NC(=O)CNC(=O)[C@@H]2CSSC[C@@H]3NC(=O)[C@H](CCC(N)=O)NC(=O)[C@H](Cc4ccccc4)NC(=O)[C@H](C)NC(=O)[C@H]([C@@H](C)O)NC(=O)[C@H](CSSC[C@H](NC(=O)[C@H](Cc4ccccc4)NC(=O)[C@H](CO)NC(=O)[C@H](CC(C)C)NC(=O)[C@H](CCCNC(=N)N)NC(=O)[C@H](Cc4ccc(O)cc4)NC(=O)[C@H](CCCCN)NC(=O)[C@H](CCSC)NC(=O)[C@H](CO)NC(=O)[C@H](Cc4cnc[nH]4)NC(=O)[C@H](CCCCN)NC3=O)C(=O)N[C@@H](CCCNC(=N)N)C(=O)N[C@@H](CCCCN)C(=O)N[C@@H]([C@@H](C)O)C(=O)N2)NC(=O)[C@H](CCCNC(=N)N)NC(=O)[C@H](CO)NC(=O)[C@H](Cc2cccc3ccccc23)NC(=O)[C@@H]2CCCN2C(=O)[C@H]([C@@H](C)CC)NC(=O)[C@H]([C@@H](C)O)NC(=O)[C@H](CC(=O)O)NC1=O | 0.666 | 0.368
 | CC[C@H](C)[C@@H]1NC(=O)[C@@H](NC(=O)[C@H](CO)NC(=O)[C@@H](N)CCCNC(=N)N)CSSC[C@@H](C(=O)O)NC(=O)[C@H]([C@@H](C)O)NC(=O)CNC(=O)[C@@H]2CSSC[C@@H]3NC(=O)[C@H](CCC(N)=O)NC(=O)[C@H](Cc4ccccc4)NC(=O)[C@H](C)NC(=O)[C@H]([C@@H](C)O)NC(=O)[C@H](CSSC[C@H](NC(=O)[C@H](Cc4ccccc4)NC(=O)[C@H](CO)NC(=O)[C@H](CC(C)C)NC(=O)[C@H](CCCNC(=N)N)NC(=O)[C@H](Cc4ccc(O)cc4)NC(=O)[C@H](CCCCN)NC(=O)[C@H](CCSC)NC(=O)[C@H](C)NC(=O)[C@H](Cc4cnc[nH]4)NC(=O)[C@H](CCCCN)NC3=O)C(=O)N[C@@H](CCCNC(=N)N)C(=O)N[C@@H](CCCCN)C(=O)N[C@@H]([C@@H](C)O)C(=O)N2)NC(=O)[C@H](CCCNC(=N)N)NC(=O)[C@H](CO)NC(=O)[C@H](CCCCN)NC(=O)[C@@H]2CCCN2C(=O)[C@H]([C@@H](C)CC)NC(=O)[C@H]([C@@H](C)O)NC(=O)[C@H](CC(=O)O)NC1=O | 0.809 | 0.251
